Reference: patent publication US20130096141A1, “BICYCLIC HETEROCYCLE DERIVATIVES AND METHODS OF USE THEREOF” (priority 2010, published 2013)

Sequences of proteins named here, by UniProt entry; tags and fusion partners are left off.
UniProt Q8TDV5, whole entry: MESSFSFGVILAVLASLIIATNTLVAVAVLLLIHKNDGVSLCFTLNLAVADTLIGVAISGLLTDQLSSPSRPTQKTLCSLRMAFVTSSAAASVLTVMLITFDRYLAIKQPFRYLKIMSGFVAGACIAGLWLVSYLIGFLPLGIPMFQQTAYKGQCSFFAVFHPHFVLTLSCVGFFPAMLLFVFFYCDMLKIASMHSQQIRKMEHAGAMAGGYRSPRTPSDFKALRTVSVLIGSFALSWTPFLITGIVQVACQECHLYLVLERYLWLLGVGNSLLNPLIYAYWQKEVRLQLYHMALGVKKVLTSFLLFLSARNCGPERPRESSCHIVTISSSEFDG

Target: GPR119 receptor (Homo sapiens, UniProt Q8TDV5)
Test: cAMP assay in cells transfected with the GPR119 receptor (human)
Conditions: read-out: h-cAMP EC50, increase in intracellular cAMP
Method: The activity of these compounds may be assayed in cells transfected the GPR119 receptor (human, mouse, rat or monkey). Incubation with the above compounds results in an increase in intracellular cAMP, from which an EC50 value may be calculated. Ki values for compounds at this receptor can be determined by employing a radio-labeled agonist. In vivo activity can be determined by conducting an oral glucose-tolerance test in an appropriate species, such as mouse.

## Cn1cc(-c2ccc(C#N)cc2Cl)c2ncnc(OC3C4COCC3CN(C(=O)OC3(C)CC3)C4)c21 (stereo not shown)
  EC50: 3.2 nM
